Data set [1] has as its system HCV replicon RNA in Huh7 cells. The data set is described as follows: Reversal studies with natural nucleosides: HCV RNA. As to conditions: no nucleoside. It is filed as cell-based, hepatitis C virus (HCV). On the procedure:
(§1) Incubation times differed according to the type of experiment.
(§2) Cells were incubated with the test compound and, simultaneously, the natural ribo- or 2′-deoxy nucleosides (adenosine, guanosine (G), cytidine (C), uridine (U), 2′-deoxycytidine (dC), 2′-deoxyuridine, thymidine, 2′-deoxyguanosine (dG), and 2′-deoxyadenosine) (Table 2).

Data set [2] deals with HCV-replicon RNA-containing Huh7 cells (HCV RNA). In words: HCV replicon assay: HCV RNA quantified by Q-RT-PCR after 96 h of compound exposure. It is filed as cell-based, hepatitis C virus (HCV). The note with it: IFN tested at 100 IU/ml; for Corrected HCV RNA log10 reduction: corrected for rRNA. On the procedure:
as §1

In data set [3] the test system is HCV replicon RNA in Huh7 cells. In words: HCV RNA levels in replicon cells over a 7-day period. It is filed as cell-based, hepatitis C virus (HCV). The note with it: IFN-α-2a at 100 IU/ml; control 1.79±0.4.
The subject of data set [4] is rRNA in HCV replicon Huh7 cells. The data set is described as follows: Reversal studies with natural nucleosides: rRNA. It is filed as cell-based. The note with it: 3125 IU/ml, no nucleoside. On the procedure:
as §1, §2

The subject of data set [5] is HCV-replicon RNA-containing Huh7 cells (HCV RNA). As to conditions: 96 hr of incubation; as previously published (Stuyver et al. 2003); cited from earlier work.
The next data set relates to HCV. As to conditions: IFN as sole treatment (Davis 2000); cited from earlier work.
The test system of data set [6] is HCV replicon-containing Huh7 cell line. In words: Dynamics of replicon cell growth (cell count) over a 7-day period.

`C[C@@]1(O)[C@H](O)[C@@H](CO)O[C@H]1n1ccc(N)nc1=O` [2′C—CH3—C, 2′-C-methyl-cytidine]: the “log10 reduction HCV” value in data set [1] (25 μM) was determined as 1.62 ± 0.05 log10.
For “Interferon: recombinant interferon alfa-2a (Roferon-A, Hoffmann-La Roche), control in the replicon experiments”, in data set [2], the “Log10 RNA reduction HCV” value turned out to be 1.57 ± 0.26 log10 and the “Corrected HCV RNA log10 reduction” value was found to be 1.36 ± 0.37 log10. In addition, in data set [2] (listed as IFN-α-2a), the “Corrected HCV RNA log10 reduction” value came to 1.36±0.37 log10 and the “Log10 RNA reduction HCV” value came out at 1.57±0.26 log10. For the same compound, the “HCV RNA levels over the 7-day period” value in data set [3] is listed as −0.53±0.4. In data set [1] (3125 IU/ml), the “log10 reduction HCV” value was found to be 1.62 ± 0.05 log10. The “log10 reduction rRNA” value in data set [4] is recorded as 0.26 ± 0.18 log10. Moreover, the “Corrected HCV RNA EC90” value in data set [5] was 4.5 IU/ml. The “sustained response, share of patients chronically infected with HCV” value in the data set with HCV is listed as 8%-9%. The “cell growth at day 4” value in data set [6] (day 4, IFN-α-2a at 100 IU/ml) came to 0.67±0.06 log10. The “cell growth, log10 increase from day 0” value in data set [6] (day 7, IFN-α-2a at 100 IU/ml) was 1.07±0.06 log10.
